In patent US6610657B1, “Alkyl peptide amides and applications” (Promega Corporation, priority 1996, dated 2003):

Target: PKA of bovine sperm (cAMP-dependent protein kinase A activity in sperm lysate) (bovine)
Assay: cell-based or functional assay

PKA activity with PKI (about 50 µM) added to the PKA assay: 100%
Substance: PKI (unmodified, non-stearated cAMP-dependent protein kinase inhibitor peptide)
